This series deals with glioma.

In the case of ^18F-FDG, the “SUVmax in normal brain tissues, range” value is given as 6.22-15.33.

Source of the values: PMC4440444 (Theranostics, 2015).
